Assay results reported in ChEMBL document CHEMBL1128449, “Novel 4'-substituted and 4',4"-disubstituted 3 alpha-(diphenylmethoxy)tropane analogs as potent and selective dopamine uptake inhibitors” (J Med Chem, 1995).

Amino acid sequences for entries named in this document (tags omitted). A change or cut given only in a name is not applied to a line headed by its entry.
UniProt P08482: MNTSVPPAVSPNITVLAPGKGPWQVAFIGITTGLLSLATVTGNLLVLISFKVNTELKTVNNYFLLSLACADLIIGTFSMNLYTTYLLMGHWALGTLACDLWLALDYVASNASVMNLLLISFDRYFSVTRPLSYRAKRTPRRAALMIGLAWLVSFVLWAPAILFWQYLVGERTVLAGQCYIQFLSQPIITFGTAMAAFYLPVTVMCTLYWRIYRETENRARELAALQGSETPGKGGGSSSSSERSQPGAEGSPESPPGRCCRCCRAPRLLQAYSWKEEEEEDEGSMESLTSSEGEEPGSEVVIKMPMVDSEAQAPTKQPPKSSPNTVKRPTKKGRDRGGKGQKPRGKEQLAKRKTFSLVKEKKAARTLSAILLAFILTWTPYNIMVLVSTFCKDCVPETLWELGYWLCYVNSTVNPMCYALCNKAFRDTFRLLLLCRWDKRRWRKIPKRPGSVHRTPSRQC

Biological target: Muscarinic acetylcholine receptor M1 (Rattus norvegicus, UniProt P08482)
Experiment: Affinity for rat M1 acetylcholine receptor using [3H]pirenzepine displacement.

SMILES: CN1C2CCC1CC(OC(c1ccc(F)cc1)c1ccc(F)cc1)C2 (stereo unspecified) [DIFLUOROBENZTROPINE]
- Ki: 6.1 nM
